## Antibody variant affinities, Ab-14 heavy chain, assay 1

Data: MIT Lincoln Laboratory AlphaSeq set, Engelhart et al. 2022, doi:10.1038/s41597-022-01779-4, as distributed in FLAb.

Target peptide (SARS-CoV-2 spike, HR2 region): PDVDLGDISGINAS

Each scFv is VH, three GGGGS repeats, VL, as in the parent Ab-14, and differs from it in the CDRs of the heavy chain only.
VH: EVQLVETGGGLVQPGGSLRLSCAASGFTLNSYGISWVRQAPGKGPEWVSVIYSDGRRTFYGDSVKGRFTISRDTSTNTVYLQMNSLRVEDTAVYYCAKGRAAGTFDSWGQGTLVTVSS
VL: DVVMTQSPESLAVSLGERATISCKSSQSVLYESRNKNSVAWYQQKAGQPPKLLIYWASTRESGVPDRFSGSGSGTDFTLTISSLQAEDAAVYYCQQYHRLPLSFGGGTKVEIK

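The parent was found by panning a naive human phage display library on the peptide. Library AAYL49 holds single substitutions and randomly drawn double and triple substitutions in the CDRs. In AlphaSeq, yeast of one mating type display the scFv and yeast of the other type display the target. After mating in shaken culture at 30 °C for 16 h, diploids were selected and their barcode pairs sequenced. A regression on co-assayed BCL2-family reference pairs converts the normalised counts of each replicate to an apparent Kd. Mating was done three times.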

Substitutions are numbered in sequence along the VH above, starting at 1 (not Kabat).
Every variant below is changed at Y52 of the VH (sequential numbering).
The read-out is the apparent dissociation constant on a log10 scale (nM): the lower, the stronger.
The mean shown is taken over the replicates in which the pair was detected.
"no signal" marks a missing value. The strain was present, yet no cells mated with the target were sequenced in any replicate, which points to weak or no binding.
Entries are sorted by rising average, undetected variants last.
Parent in this assay: reference entry 0.65, copy in this library 4.11 (one replicate of three).
Empty control strains, which show no peptide, gave a signal in 15% of pairings with library AAYL49; the median was 4.06 and 95% of these signals were weaker than 2.83. No background was subtracted. For each scFv, signals with the empty controls are counted beside the result.

Variant G26A/Y52F/A101L gave 1.26 (1 of 3 replicates; controls 0 of 9). Variant N30C/Y52H/D62E showed 2.80 (1 of 3 replicates; controls 1 of 9). With I51P/Y52R/G55D the result was 3.49 (1 of 3 replicates; controls 2 of 9). With V50A/Y52R/K65L the result was 3.68 (1 of 3 replicates; controls 1 of 9). Variant S35P/Y52F/F59R showed 3.76 (1 of 3 replicates; controls 2 of 9). Variant Y32C/Y52I/G103Q gave 3.79 (1 of 3 replicates; controls 1 of 9).

For Y52M/T58K/D62I, the assay gave 4.00 (1 of 3 replicates; controls 0 of 9). With Y52V/F59D/S107P the result was 4.39 (1 of 3 replicates; controls 1 of 9). Variant L29S/I51M/Y52A showed 4.45 (2 of 3 replicates; controls 3 of 9). Variant Y52L/F59H/G103Q gave 4.54 (1 of 3 replicates; controls 1 of 9). With L29Q/Y52H/R100S the result was 4.61 (3 of 3 replicates; controls 5 of 9). Variant Y52S/T58E showed 4.67 (1 of 3 replicates; controls 6 of 9).

Variant S35R/Y52R/R100W showed 4.73 (1 of 3 replicates; controls 1 of 9). With Y52D/T58I/K65R the result was 4.89 (1 of 3 replicates; controls 0 of 9). For Y52R, the assay gave 4.94 (2 of 3 replicates; controls 3 of 9). Variant V50A/Y52S showed 4.97 (2 of 3 replicates; controls 6 of 9). Variant S31L/I34L/Y52C showed 5.52 (2 of 3 replicates; controls 9 of 9). For Y52C/A102C, the assay gave 5.70 (1 of 3 replicates; controls 1 of 9).

Variant L29M/Y52A/S107R showed no signal (0 of 3 replicates; controls 0 of 9). For Y52T/T58M/S107R, the assay gave no signal (0 of 3 replicates; controls 0 of 9). Variant T28W/Y52V showed no signal (0 of 3 replicates; controls 0 of 9). With Y52G the result was no signal (0 of 3 replicates; controls 2 of 9). Variant Y52F/G55M gave no signal (0 of 3 replicates; controls 0 of 9). Variant G33F/Y52M showed no signal (0 of 3 replicates; controls 3 of 9).

Variant T28N/Y52V/F59L showed no signal (0 of 3 replicates; controls 0 of 9). Variant Y52C/R56P/V64G showed no signal (0 of 3 replicates; controls 0 of 9). For G33P/Y52K/V64K, the assay gave no signal (0 of 3 replicates; controls 2 of 9). For N30I/Y32D/Y52P, the assay gave no signal (0 of 3 replicates; controls 3 of 9). For Y52R/F59W/G103D, the assay gave no signal (0 of 3 replicates; controls 2 of 9). Variant G26Y/Y52I/S107H showed no signal (0 of 3 replicates; controls 1 of 9).

With Y52N/R56H/D106P the result was no signal (0 of 3 replicates; controls 1 of 9). Variant S35G/Y52T/S107E showed no signal (0 of 3 replicates; controls 1 of 9). Variant S31R/Y52W/F105I gave no signal (0 of 3 replicates; controls 0 of 9). Variant Y52D/R56N/R100C showed no signal (0 of 3 replicates; controls 2 of 9). With S31V/Y52P/S53E the result was no signal (0 of 3 replicates; controls 3 of 9).

For reference, 4 entries of the list once more:

Y52R: 4.94 (2 of 3 replicates; controls 3 of 9).
V50A/Y52S: 4.97 (2 of 3 replicates; controls 6 of 9).
Y52V/F59D/S107P: 4.39 (1 of 3 replicates; controls 1 of 9).
N30C/Y52H/D62E: 2.80 (1 of 3 replicates; controls 1 of 9).